Laboratory results reported in PubChem BioAssay (EPA / NIEHS).
These results got no clear call from the source, so the numbers are uncertain. How the source made its calls: active means hit-call score of the fitted dose curve at least 0.9, where 1 is the maximum; inconclusive means response in the unintended direction; inactive means score below 0.9.

Amino acid sequences for entries named in this document (tags omitted). A change or cut given only in a name is not applied to a line headed by its entry.
UniProt Q14994: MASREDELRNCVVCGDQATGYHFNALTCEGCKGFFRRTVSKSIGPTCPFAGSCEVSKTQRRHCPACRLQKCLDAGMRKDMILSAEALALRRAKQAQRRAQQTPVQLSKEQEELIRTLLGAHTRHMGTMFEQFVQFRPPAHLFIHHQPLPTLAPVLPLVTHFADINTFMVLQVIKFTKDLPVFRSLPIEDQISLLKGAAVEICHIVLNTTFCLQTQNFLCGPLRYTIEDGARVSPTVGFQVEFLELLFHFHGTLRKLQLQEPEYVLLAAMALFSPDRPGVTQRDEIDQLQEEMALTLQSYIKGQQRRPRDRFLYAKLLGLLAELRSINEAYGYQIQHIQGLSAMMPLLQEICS
UniProt P10275: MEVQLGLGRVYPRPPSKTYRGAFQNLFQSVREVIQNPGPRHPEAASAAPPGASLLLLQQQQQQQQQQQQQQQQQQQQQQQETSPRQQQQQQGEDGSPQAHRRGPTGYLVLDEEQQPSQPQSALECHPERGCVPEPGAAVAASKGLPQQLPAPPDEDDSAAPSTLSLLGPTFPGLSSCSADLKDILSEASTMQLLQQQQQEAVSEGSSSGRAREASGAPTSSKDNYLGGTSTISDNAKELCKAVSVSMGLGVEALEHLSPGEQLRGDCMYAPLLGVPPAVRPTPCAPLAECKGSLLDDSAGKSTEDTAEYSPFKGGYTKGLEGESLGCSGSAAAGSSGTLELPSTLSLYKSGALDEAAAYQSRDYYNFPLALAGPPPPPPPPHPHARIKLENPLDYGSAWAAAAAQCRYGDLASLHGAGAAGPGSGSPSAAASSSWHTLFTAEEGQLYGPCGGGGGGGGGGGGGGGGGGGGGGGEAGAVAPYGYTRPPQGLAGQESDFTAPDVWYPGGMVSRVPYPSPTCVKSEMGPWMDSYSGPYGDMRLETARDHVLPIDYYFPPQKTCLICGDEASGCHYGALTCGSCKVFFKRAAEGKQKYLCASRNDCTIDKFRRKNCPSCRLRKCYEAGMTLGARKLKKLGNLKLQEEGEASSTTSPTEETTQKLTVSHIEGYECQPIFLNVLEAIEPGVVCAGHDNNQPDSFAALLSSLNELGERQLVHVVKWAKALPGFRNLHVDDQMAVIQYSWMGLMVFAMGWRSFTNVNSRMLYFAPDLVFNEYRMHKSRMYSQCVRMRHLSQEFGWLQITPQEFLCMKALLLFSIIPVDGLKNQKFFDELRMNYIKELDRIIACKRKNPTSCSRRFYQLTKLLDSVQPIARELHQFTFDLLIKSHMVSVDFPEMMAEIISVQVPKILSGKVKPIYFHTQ
UniProt Q13131: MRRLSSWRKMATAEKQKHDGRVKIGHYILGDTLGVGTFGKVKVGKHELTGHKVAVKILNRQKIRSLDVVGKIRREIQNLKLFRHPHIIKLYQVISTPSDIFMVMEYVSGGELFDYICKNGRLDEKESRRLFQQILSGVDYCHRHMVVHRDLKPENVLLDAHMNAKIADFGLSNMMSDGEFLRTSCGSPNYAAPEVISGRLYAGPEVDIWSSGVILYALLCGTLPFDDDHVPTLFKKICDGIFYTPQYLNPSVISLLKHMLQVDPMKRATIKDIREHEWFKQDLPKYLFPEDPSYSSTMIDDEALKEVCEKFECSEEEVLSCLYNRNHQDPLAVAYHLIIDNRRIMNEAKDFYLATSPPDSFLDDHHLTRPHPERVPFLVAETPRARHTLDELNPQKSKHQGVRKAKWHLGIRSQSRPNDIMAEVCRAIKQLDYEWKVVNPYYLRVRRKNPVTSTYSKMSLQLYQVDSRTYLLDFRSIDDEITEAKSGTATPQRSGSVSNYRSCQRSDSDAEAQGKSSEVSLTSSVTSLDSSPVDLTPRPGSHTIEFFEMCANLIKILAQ
UniProt P24666: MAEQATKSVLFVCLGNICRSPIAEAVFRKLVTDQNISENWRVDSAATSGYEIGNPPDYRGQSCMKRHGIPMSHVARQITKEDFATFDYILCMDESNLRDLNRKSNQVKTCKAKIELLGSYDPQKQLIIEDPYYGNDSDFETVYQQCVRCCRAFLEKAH
UniProt Q9UBN7: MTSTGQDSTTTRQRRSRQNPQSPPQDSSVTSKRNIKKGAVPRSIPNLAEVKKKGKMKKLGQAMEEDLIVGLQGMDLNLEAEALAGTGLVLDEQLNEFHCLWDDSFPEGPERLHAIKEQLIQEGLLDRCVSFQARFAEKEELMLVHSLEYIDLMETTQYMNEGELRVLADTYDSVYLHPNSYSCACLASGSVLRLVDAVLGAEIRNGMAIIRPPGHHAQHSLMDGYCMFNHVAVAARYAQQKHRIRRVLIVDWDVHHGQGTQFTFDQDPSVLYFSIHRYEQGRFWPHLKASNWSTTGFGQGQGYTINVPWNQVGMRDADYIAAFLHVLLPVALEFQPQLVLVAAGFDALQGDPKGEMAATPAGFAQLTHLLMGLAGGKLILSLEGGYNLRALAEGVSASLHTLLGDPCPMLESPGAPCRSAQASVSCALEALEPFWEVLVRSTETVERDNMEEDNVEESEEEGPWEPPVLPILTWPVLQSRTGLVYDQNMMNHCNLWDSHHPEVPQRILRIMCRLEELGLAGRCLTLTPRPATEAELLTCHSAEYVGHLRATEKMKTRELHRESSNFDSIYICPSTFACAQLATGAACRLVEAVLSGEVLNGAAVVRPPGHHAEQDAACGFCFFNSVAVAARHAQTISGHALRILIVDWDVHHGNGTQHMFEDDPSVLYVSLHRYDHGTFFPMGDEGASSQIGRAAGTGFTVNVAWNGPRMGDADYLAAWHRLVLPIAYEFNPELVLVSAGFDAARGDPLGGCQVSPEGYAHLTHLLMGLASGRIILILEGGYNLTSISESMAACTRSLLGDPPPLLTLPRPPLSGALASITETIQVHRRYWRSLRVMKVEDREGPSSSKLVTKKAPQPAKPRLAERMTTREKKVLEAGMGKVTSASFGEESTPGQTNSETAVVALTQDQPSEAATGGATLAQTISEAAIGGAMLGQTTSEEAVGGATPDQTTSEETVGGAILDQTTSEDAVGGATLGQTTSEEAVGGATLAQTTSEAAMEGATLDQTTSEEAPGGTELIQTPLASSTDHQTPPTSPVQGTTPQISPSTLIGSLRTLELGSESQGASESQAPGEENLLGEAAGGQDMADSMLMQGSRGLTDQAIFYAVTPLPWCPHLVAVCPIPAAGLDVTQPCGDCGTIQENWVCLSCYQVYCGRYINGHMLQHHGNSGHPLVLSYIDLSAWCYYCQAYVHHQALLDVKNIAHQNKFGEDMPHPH
UniProt P42336, whole entry, looked up: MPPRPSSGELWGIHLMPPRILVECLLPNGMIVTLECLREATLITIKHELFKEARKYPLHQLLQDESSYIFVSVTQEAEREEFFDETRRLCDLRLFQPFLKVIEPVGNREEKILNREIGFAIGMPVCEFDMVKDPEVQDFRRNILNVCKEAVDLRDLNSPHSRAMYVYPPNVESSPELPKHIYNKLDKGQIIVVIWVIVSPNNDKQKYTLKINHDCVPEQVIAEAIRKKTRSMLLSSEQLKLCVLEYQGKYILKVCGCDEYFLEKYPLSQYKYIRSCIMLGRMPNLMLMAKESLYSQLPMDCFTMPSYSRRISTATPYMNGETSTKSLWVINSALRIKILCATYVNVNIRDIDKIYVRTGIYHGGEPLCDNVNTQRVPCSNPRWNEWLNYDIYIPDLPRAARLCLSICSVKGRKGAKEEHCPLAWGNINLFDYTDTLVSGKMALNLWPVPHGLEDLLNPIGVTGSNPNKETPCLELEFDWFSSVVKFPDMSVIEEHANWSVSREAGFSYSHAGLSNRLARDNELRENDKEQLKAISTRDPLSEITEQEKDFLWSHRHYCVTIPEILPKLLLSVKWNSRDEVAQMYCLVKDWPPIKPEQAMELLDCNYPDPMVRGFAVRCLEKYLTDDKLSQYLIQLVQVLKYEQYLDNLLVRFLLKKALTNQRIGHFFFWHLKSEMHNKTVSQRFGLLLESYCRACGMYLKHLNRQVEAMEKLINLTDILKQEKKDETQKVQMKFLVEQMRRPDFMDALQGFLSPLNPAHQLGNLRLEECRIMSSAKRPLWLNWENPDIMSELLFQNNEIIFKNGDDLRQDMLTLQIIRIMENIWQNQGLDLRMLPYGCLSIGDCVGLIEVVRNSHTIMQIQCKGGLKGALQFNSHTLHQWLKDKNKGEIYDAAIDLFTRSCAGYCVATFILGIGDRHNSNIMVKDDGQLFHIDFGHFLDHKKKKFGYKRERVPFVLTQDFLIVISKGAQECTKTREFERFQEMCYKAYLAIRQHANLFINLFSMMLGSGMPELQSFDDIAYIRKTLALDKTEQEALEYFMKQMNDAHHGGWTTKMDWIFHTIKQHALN
UniProt Q13464: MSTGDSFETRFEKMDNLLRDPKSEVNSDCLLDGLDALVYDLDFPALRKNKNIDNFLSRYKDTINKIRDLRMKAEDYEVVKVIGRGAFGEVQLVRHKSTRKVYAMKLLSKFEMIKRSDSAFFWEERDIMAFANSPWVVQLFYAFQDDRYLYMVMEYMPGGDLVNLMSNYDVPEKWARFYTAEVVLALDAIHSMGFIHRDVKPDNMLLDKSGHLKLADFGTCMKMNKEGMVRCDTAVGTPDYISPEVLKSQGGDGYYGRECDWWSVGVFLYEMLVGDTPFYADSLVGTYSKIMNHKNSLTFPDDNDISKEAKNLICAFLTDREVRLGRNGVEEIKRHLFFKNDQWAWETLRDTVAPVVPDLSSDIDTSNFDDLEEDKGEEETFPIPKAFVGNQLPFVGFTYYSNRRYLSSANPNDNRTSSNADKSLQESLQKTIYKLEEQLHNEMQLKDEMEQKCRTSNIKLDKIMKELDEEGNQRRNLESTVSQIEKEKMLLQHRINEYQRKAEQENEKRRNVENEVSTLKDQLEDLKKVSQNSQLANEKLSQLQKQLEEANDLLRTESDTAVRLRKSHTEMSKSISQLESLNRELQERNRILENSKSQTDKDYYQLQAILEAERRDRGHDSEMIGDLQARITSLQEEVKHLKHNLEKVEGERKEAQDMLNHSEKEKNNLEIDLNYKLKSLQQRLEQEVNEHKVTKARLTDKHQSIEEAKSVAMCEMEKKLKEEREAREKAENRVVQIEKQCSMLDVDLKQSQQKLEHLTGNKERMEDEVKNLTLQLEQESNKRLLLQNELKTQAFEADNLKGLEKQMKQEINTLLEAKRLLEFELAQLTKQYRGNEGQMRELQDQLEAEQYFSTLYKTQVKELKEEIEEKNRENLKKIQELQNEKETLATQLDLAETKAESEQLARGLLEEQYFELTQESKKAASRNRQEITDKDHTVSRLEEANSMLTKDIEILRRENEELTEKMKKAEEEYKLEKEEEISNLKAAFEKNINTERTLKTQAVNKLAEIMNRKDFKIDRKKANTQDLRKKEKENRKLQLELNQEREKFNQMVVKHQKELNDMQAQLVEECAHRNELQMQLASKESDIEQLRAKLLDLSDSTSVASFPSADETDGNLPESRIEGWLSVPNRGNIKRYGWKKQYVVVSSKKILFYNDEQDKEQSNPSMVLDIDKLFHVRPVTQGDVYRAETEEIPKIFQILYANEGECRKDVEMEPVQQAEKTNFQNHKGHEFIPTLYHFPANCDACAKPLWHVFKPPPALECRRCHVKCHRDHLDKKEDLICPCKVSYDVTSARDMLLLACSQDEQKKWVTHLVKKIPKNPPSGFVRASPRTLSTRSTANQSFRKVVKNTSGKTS
UniProt P10276, whole entry, looked up: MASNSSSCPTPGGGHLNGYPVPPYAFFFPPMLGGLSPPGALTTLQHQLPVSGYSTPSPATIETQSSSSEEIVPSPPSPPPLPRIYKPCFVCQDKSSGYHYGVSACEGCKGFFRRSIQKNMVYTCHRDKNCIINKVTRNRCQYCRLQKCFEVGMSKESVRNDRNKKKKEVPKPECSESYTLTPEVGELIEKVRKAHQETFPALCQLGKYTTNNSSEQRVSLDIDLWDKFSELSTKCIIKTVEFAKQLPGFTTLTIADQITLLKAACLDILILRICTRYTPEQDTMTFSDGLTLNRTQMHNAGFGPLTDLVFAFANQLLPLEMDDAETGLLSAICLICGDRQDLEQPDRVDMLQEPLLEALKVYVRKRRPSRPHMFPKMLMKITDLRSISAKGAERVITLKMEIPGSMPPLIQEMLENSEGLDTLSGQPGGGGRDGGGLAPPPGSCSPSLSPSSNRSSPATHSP
UniProt Q07869: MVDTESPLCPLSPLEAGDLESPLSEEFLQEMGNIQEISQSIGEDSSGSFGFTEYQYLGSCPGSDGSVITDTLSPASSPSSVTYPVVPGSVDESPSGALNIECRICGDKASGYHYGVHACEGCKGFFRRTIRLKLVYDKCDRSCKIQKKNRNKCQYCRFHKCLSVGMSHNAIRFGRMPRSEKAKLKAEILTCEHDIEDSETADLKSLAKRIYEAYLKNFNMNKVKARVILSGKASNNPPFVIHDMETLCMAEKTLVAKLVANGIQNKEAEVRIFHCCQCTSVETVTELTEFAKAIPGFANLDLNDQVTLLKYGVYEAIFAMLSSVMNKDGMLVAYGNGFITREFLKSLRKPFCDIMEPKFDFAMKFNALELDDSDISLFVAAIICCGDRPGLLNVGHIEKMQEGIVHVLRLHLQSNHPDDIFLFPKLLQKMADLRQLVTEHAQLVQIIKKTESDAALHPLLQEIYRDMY

Legend:
[1] = target: Nuclear receptor subfamily 1 group I member 3 (Homo sapiens) (UniProt Q14994); assay: ATG_CAR_TRANS: Attagene TRANS-FACTORIAL HepG2 Assay for human Constitutive Androstane Receptor (CAR) (AID 2282969); details: HepG2 Attagene TRANS-FACTORIAL CAR reporter;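 further: activators raise reporter mRNA above DMSO so AC50 marks induction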
Summary of the method: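 Transiently transfected HepG2, multiplex TRANS reporters (CAR-Gal4 chimera driving GAL4-UAS reporter). 24 h dosing. Readout: reporter transcript by RT-PCR + capillary electrophoresis, fluorescence intensity; positive direction vs DMSO.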

[2] = target: Androgen receptor (Homo sapiens) (UniProt P10275); assay: ATG_AR_TRANS: Attagene TRANS-FACTORIAL HepG2 Assay for human Androgen Receptor (AR) (AID 2282973); details: HepG2 Attagene TRANS-FACTORIAL AR reporter transcription
Summary of the method: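 HepG2 cells transiently transfected with AR-Gal4 chimera and GAL4-UAS reporter units; chemical exposure 24 h. Reporter mRNA quantified by RT-PCR with fluorescent labelling and capillary electrophoresis; gain-of-signal fitted against DMSO.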

[3] = ATG_M_06_TRANS: Attagene TRANS-FACTORIAL HepG2 Assay for M06 Transcription Factor (Internal Marker) (AID 2282983); details: HepG2 Attagene TRANS M06 internal marker reporter;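 further: potency for rise in reporter mRNA above DMSO baseline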
Summary of the method: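 mRNA levels of a reporter transcript, quantified as FAM fluorescence on capillary electrophoresis, served as readout. HepG2 cells expressing exogenous GAL4-chimera reporter constructs were exposed for 24 h. Gain of signal over DMSO was evaluated.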

[4] = target: Retinoic acid receptor RXR-alpha (Homo sapiens) (UniProt P19793); assay: ATG_RXRa_TRANS: Attagene TRANS-FACTORIAL HepG2 Assay for human Retinoid X Receptor alpha (RXRa) (AID 2283012)
Summary of the method: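 Read-out: fluorescent reporter-transcript fragments quantified by capillary electrophoresis after RT-PCR. Transiently transfected HepG2 cells carrying GAL4-UAS reporters and NR-GAL4 chimeras were exposed to chemical for 24 h; activity scored as increase over DMSO.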

[5] = target: human AMP-activated Protein Kinase, alpha 1 (AMPKa1), PRKAA1 (gene 5562) (UniProt Q13131); assay: NVS_ENZ_hAMPKa1: NovaScreen (NVS) Enzymatic Assay for human AMP-activated Protein Kinase, alpha 1 (AMPKa1) (AID 2283130)
Summary of the method: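 Compounds were screened in duplicate at 25 uM, and those reaching ~30% inhibition were titrated up to 50 uM. The enzyme was recombinant human AMPKα1, and kinase turnover was read by fluorescence/mobility shift 1 h post-dosing as loss of signal versus DMSO.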

[6] = target: human Acid Phosphatase 1 (ACP1), ACP1 (gene 52) (UniProt P24666); assay: NVS_ENZ_hACP1: NovaScreen (NVS) Enzymatic Assay for human Acid Phosphatase 1 (ACP1) (AID 2283136)
Summary of the method: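 Cell-free fluorescence read-out of phosphatase activity, substrate and product separated by mobility shift, taken 1.5 h after compound addition; protein produced in Sf9. Single 25 uM duplicate screen, followed by concentration series for actives, scored as signal loss relative to DMSO.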

[7] = target: Protein deacetylase HDAC6 (Homo sapiens) (UniProt Q9UBN7); assay: NVS_ENZ_hHDAC6: NovaScreen (NVS) Enzymatic Assay for human Histone Deacetylase 6 (HDAC6) (AID 2283164)
Summary of the method: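 Concentration-response runs up to 50 uM followed a duplicate 25 uM single-point screen. Deacetylase activity of recombinant human HDAC6 read by fluorescence after 1 h, with mobility-shift separation of substrate and product; DMSO as baseline.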

[8] = target: human MET Proto-Oncogene, Receptor Tyrosine Kinase (MET), MET (gene 4233) (UniProt P08581); assay: NVS_ENZ_hMet: NovaScreen (NVS) Enzymatic Assay for human MET Proto-Oncogene, Receptor Tyrosine Kinase (MET) (AID 2283180)
Summary of the method: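 Hits from a 25 uM duplicate screen were retested in concentration series up to 50 uM. Enzyme activity was measured by fluorescence after electrophoretic separation of product from substrate, 1 h after compound addition, relative to DMSO.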

[9] = target: human NIMA (Never In Mitosis Gene A)-Related Kinase 2 (NEK2), NEK2 (gene 4751) (UniProt P51955); assay: NVS_ENZ_hNEK2: NovaScreen (NVS) Enzymatic Assay for human NIMA (Never In Mitosis Gene A)-Related Kinase 2 (NEK2) (AID 2283188)
Summary of the method: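 Compounds were first screened in duplicate at 25 uM, with actives followed up in concentration series. Recombinant NEK2 activity, cell-free, was read 1 h after dosing by fluorescence intensity after mobility-shift separation. Signal loss was scored against DMSO.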

[10] = target: human Phosphodiesterase 4A1 (PDE4A1), PDE4A (gene 5141) (UniProt P27815); assay: NVS_ENZ_hPDE4A1: NovaScreen (NVS) Enzymatic Assay for human Phosphodiesterase 4A1 (PDE4A1) (AID 2283191)
Summary of the method: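 Fluorescent substrate turnover by recombinant PDE4A1 read after 1 h by mobility-shift separation. Primary duplicate screen at 25 uM; hits retested in concentration series with a 50 uM maximum, relative to DMSO.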

[11] = target: human Phosphoinositide 3-kinase alpha (PI3Ka), PIK3CA (gene 5290) (UniProt P42336); assay: NVS_ENZ_hPI3Ka: NovaScreen (NVS) Enzymatic Assay for human Phosphoinositide 3-kinase alpha (PI3Ka) (AID 2283196)
Summary of the method: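 Chemicals were first screened at 25 uM in duplicate, then hits were run as concentration series up to 50 uM. Enzyme activity was measured by fluorescence after mobility-shift separation, with loss of signal relative to DMSO taken as activity.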

[12] = target: human Protein Tyrosine Phosphatase Non-receptor Type 2 (PTPN2), PTPN2 (gene 5771) (UniProt P17706); assay: NVS_ENZ_hPTPN2: NovaScreen (NVS) Enzymatic Assay for human Protein Tyrosine Phosphatase Non-receptor Type 2 (PTPN2) (AID 2283207)
Summary of the method: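 Activity measured as fluorescence after mobility-shift separation of substrate and product, 1 h after compound. Duplicate single-point 25 uM primary testing, concentration series for actives; inhibition scored as signal loss relative to DMSO baseline.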

[13] = target: human Protein Tyrosine Phosphatase Receptor Type B (PTPRB), PTPRB (gene 5787) (UniProt P23467); assay: NVS_ENZ_hPTPRB: NovaScreen (NVS) Enzymatic Assay for human Protein Tyrosine Phosphatase Receptor Type B (PTPRB) (AID 2283211)
Summary of the method: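 Recombinant human PTPRB with a fluorescent substrate, product separated by electrophoretic mobility shift; read 1 h after dosing. Primary screen in duplicate at 25 uM; actives then retested in concentration series; loss of signal versus DMSO.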

[14] = target: human Rho Associated Coiled-coil Containing Protein Kinase 1 (ROCK1), ROCK1 (gene 6093) (UniProt Q13464); assay: NVS_ENZ_hROCK1: NovaScreen (NVS) Enzymatic Assay for human Rho Associated Coiled-coil Containing Protein Kinase 1 (ROCK1) (AID 2283214)
Summary of the method: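 Compounds first run in duplicate at 25 uM against recombinant human ROCK1, then followed in concentration series. Kinase activity was read 1 h post-dosing by fluorescence with mobility-shift separation, as signal loss relative to DMSO.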

[15] = target: human Raf-1 Proto-Oncogene, serine/threonine Kinase (RAF1), RAF1 (gene 5894) (UniProt P04049); assay: NVS_ENZ_hRAF1: NovaScreen (NVS) Enzymatic Assay for human Raf-1 Proto-Oncogene, serine/threonine Kinase (RAF1) (AID 2283216)
Summary of the method: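 Single-point screening at 25 uM (duplicate), followed by singleton concentration-response to 50 uM maximum for chemicals exceeding threshold. Enzyme activity from fluorescent substrate-product mobility-shift separation after 1 h, relative to DMSO.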

[16] = target: human Tyrosine Protein Kinase Receptor Tie-2 (Tie2), TEK (gene 7010) (UniProt Q02763); assay: NVS_ENZ_hTie2: NovaScreen (NVS) Enzymatic Assay for human Tyrosine Protein Kinase Receptor Tie-2 (Tie2) (AID 2283225)
Summary of the method: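 Substrate and product were separated by mobility shift and detected by fluorescence after a 1-hour reaction with recombinant Tie2. Chemicals passing a 25 uM single-point screen were titrated to a maximum of 50 uM. Results were normalized to DMSO baseline.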

[17] = target: Adenosine receptor A1 (Bos taurus) (UniProt P28190); assay: NVS_GPCR_bAdoR_NonSelective: NovaScreen (NVS) G Protein-Coupled Receptor Assay for bovine Adenosine Receptor (AdoR), Non-selective Binding (AID 2283244)
Summary of the method: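 Cell-free binding with membranes from bovine striatum: radioligand displaced by test chemical, read after 1 h by filtration and scintillation. Single-point 25 uM duplicate primary, 50 uM top concentration in follow-up curves, DMSO baseline.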

[18] = target: human Constitutive Androstane Receptor (CAR), NR1I3 (gene 9970) (UniProt Q14994); assay: NVS_NR_hCAR_Antagonist: NovaScreen (NVS) Nuclear Receptor Binding Assay for human Constitutive Androstane Receptor Antagonism (CAR) (AID 2283344)
Summary of the method: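 Single 25 uM duplicate primary screen, with concentration-series follow-up on actives. Cell-free binding format run in antagonist mode, TR-FRET signal taken 1 h post-dose; activity is signal loss relative to DMSO.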

[19] = target: Estrogen receptor beta (Homo sapiens) (UniProt Q92731); assay: OT_ER_ERbERb_0480: Odyssey Thera (OT) 8-hour HEK293T Protein-Complementation Assay for Estrogen Receptor-beta/-beta Homodimer (AID 2283357);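 further: active means signal gain over DMSO baseline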
Summary of the method: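 Homodimerization of ER-beta LBD measured by protein-fragment complementation in HEK293T; 8 h dosing; fixed, Draq5 counterstain; fluorescence intensity gain over DMSO baseline, positive fitting direction; laser scanning cytometry.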

[20] = target: Retinoic acid receptor alpha (Homo sapiens) (UniProt P10276); assay: NVS_NR_hRAR_Antagonist: NovaScreen (NVS) Nuclear Receptor Binding Assay for human Retinoic Acid Alpha Receptor Antagonism (RAR) (AID 2283358)
Summary of the method: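 Read-out: time-resolved FRET binding signal, 2 h post-dose, cell-free extracted protein. Antagonism scored as signal loss versus DMSO negative control. Primary single-concentration screen at 25 uM in duplicate; concentration series for actives.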

[21] = target: human Peroxisome Proliferator-activated Receptor alpha (PPARa), PPARA (gene 5465) (UniProt Q07869); assay: NVS_NR_hPPARa: NovaScreen (NVS) Nuclear Receptor Binding Assay for human Peroxisome Proliferator-activated Receptor alpha (PPARa) (AID 2283359);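 further: activity means loss of TR-FRET signal versus DMSO baseline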
Summary of the method: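 TR-FRET signal measured at 1 h post-dosing; loss-of-signal versus DMSO negative control taken as activity. Extracted gene-protein, cell-free format. Initial single-point duplicates at 25 uM, then concentration-response retests.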

[22] = target: Nuclear receptor subfamily 1 group I member 2 (Homo sapiens) (UniProt O75469); assay: NVS_NR_hPXR: NovaScreen (NVS) Nuclear Receptor Binding Assay for human Pregnane X Receptor (PXR) (AID 2283365);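 further: a drop in FRET signal versus DMSO baseline means the compound binds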
Summary of the method: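 Cell-free TR-FRET binding assay with extracted human PXR protein, read 2 h after dosing. Primary screen run in duplicate at 25 uM, actives followed in concentration series; loss of signal fitted against DMSO baseline.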

[23] = Tanguay_ZF_120hpf_JAW_legacy: (Legacy) Oregon State University Tanguay Lab 120 Hour Post-fertilization zebrafish Assay for Jaw Malformation (AID 2283638);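 further: active means more embryos with jaw malformation than DMSO controls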
Summary of the method: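 Dechorionated Tropical 5D wild-type zebrafish embryos, one per well, exposed statically from 6 hpf to 120 hpf at 28C in 0.64% DMSO. Jaw malformation was scored by brightfield microscopy as present or absent. It was not scored in dead embryos.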

[24] = Tanguay_ZF_120hpf_BRAI_legacy: (Legacy) Oregon State University Tanguay Lab 120 Hour Post-fertilization zebrafish Assay for Brain Malformation (AID 2283641)
Summary of the method: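 Tropical 5D wild-type zebrafish embryos exposed statically until 120 hpf at 28C, 0.64% DMSO final, sealed and dark. Brain malformation scored present/absent by brightfield at 120 hpf; dead embryos excluded. Trimethyltin chloride 5uM positive control.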

[25] = Tanguay_ZF_120hpf_SOMI_legacy: (Legacy) Oregon State University Tanguay Lab 120 Hour Post-fertilization zebrafish Assay for Somite Malformation (AID 2283647)
Summary of the method: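 Dechorionated Tropical 5D wild-type zebrafish embryos, one per well from 6 hpf, statically exposed at 28C to 120 hpf in 0.64% DMSO; somite malformation scored present/absent by brightfield; trimethyltin 5 uM positive control; dead embryos not scored.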

[26] = Tanguay_ZF_120hpf_PFIN_legacy: (Legacy) Oregon State University Tanguay Lab 120 Hour Post-fertilization zebrafish Assay for Pectoral Fin Malformation (AID 2283648);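 further: each larva judged yes or no for fin defect by brightfield with dead larvae skipped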
Summary of the method: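 Binary pectoral fin malformation call at 120 hpf by brightfield microscopy; 5D wild-type zebrafish, chorion removed at 4 hpf, one embryo per well from 6 hpf, static exposure at 28C; DMSO (0.64% final) as baseline.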

[27] = Tanguay_ZF_120hpf_TRUN_legacy: (Legacy) Oregon State University Tanguay Lab 120 Hour Post-fertilization zebrafish Assay for Truncated Body (AID 2283655)
Summary of the method: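 Dechorionated Tropical 5D wild-type embryos placed singly from 6 hpf and statically exposed to 120 hpf at 28C, final DMSO 0.64%. Truncated body scored as present/absent by brightfield; not scored in dead embryos.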

[28] = Tanguay_ZF_120hpf_NC_legacy: (Legacy) Oregon State University Tanguay Lab 120 Hour Post-fertilization zebrafish Assay for Notochord and Tail Malformation (AID 2283656)
Summary of the method: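 Binary notochord-distortion calls, made by brightfield inspection, form the read-out; activity is fitted in the positive direction against DMSO. Exposure ran statically from 6 to 120 hpf at 28C with 0.64% DMSO.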

[29] = target: Nucleoli Translocation, AR (gene 367) (UniProt P10275); assay: UPITT_HCI_U2OS_AR_TIF2_Nucleoli_Agonist: University of Pittsburgh U2OS Androgen Receptor-Transcriptional Intermediary Factor 2 (AR-TIF2) Agonism High Content Imaging Assay for Nucleoli Translocation (AID 2283998)
Summary of the method: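 U2OS cells expressing RFP-tagged human AR and GFP-tagged TIF2; red fluorescence in nucleoli quantified by high-content imaging. Primary screen at 20 uM final (0.2% DMSO); concentration-response 0.195–50 uM (0.5% DMSO), fitted upward versus DMSO.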

Measured: AC50

Cc1cc([N+](=O)[O-])cc([N+](=O)[O-])c1O
inconclusive: [1] 100 µM | [2] 100 µM | [3] 100 µM | [4] 100 µM | [5] 25 µM | [6] 25 µM | [7] 25 µM | [8] 25 µM | [9] 47.1 µM | [10] 25 µM | [11] 45 µM | [12] 25 µM | [13] 25 µM | [14] 25 µM | [15] 0.307 µM | [16] 0.0745 µM | [17] 6.57 µM | [18] 5.93 µM | [19] 50 µM | [20] 0.335 µM | [21] 4.96 µM | [22] 25 µM | [23] 20.2 µM | [24] 20.2 µM | [25] 20.2 µM | [26] 16.9 µM | [27] 20.2 µM | [28] 20.2 µM | [29] 50 µM
